From patent publication US20100248255A1, “NOVEL PEPTIDES” (KYOWA HAKKO KOGYO CO., LTD, priority 2005, published 2010)

Tested on: antiserum (rabbit, Peptide 7-KLH conjugate as antigen)
Experiment: Binding specificity of antiserum by competitive RIA with [125I]-labeled Peptide 1
Conditions: non-VGF peptides at 1, 10, and 100 pmol
Method: As controls, reactions that use RIA buffer instead of the antiserum to measure non-specific binding, and reactions […] that use RIA buffer instead of VGF-derived peptide solutions to measure the maximum binding level were carried out. Reactions for non-specific binding were performed in quadruplicates, and the other reactions were performed in duplicates, and for each of the reactants, the immune complex was precipitated as in the above-mentioned antibody titer measurements, and its radioactivity (cpm) was measured. The average radioactivity of non-specific binding reaction is defined as non-specific binding level N, the radioactivity value for each VGF-derived peptide addition reaction is defined as Y, and the radioactivity value of maximum binding reaction is defined as Z. The percentage ratio (B/B0) of antiserum specific binding level (B) with peptide addition to the maximum binding level (B0), was determined using the following formula.
B/B0 (%)={(Y−N)/(Z−N)}×100
Accordingly, the amount of peptide that achieves 50% B/B0, more specifically, the amount of peptide that yields 50% inhibition of the maximum binding level, was used as an indicator of the peptide binding activity to the antiserum. […]

## calcitonin gene-related peptide
  inhibition of antiserum binding to [125I]-labeled Peptide 1: none of the peptides showed inhibition
